Marks after values point to notes of the source that are not given here.
Tested on: Caco-2 monolayer
Experiment: Caco-2 monolayer transmembrane transport, apical to basolateral
Type: in vitro ADME, human
Conditions: for PappAtoB: 40 µM flavonoid, 6 h, A to B, mean ± SD (n = 3)

Myricitrin
PappAtoB (No substrate): 6.25 ± 0.09^b × 10^-6 cm/s
PappAtoB (RD (rice flour digested products) 400 µg/mL): 5.55 ± 0.07^a × 10^-6 cm/s
change of apparent permeability coefficient (in words) (RD group vs no substrate): decrease in the apparent permeability coefficient
Increase in PappAtoB (RD vs no substrate): −0.11
PappAtoB (WD (wheat flour digested products) 400 µg/mL): 10.82 ± 0.31^c × 10^-6 cm/s
change of apparent permeability coefficient (in words) (WD group vs no substrate): increase
Increase in PappAtoB (WD vs no substrate): 0.73

From PMC10740061 (Food Chemistry: X, 2023)
